{"source": "paper PMC3978654", "about": "“Surface plasmon resonance using the catalytic domain of soluble guanylate cyclase allows the detection of enzyme activators^” (Bioorganic & Medicinal Chemistry Letters, 2014)", "biological_target": "T1, soluble guanylate cyclase α1β1 (sGC) (Homo sapiens, UniProt Q02108+Q02153)", "T1 construct": "gene GUCY1B1; α1β1 catalytic domain (sGCcat); with sGC α1 subunit (GUCY1A1)", "T1 sequence (Q02153 408-619 limits assumed)": "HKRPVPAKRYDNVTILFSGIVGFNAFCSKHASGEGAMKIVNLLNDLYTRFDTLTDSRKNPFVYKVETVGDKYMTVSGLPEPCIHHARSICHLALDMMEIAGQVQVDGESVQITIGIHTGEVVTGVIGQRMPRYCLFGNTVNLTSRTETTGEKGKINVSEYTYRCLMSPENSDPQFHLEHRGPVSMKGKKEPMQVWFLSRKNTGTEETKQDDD", "T1 sequence (Q02108 467-690)": "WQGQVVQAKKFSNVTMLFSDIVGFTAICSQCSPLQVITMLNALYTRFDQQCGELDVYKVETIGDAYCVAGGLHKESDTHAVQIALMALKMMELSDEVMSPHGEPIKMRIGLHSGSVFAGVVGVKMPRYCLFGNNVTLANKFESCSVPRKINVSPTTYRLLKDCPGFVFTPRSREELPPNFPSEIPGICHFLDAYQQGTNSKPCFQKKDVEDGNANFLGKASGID", "assay": "SPR (Biacore T200), concentration series", "format": "binding", "data": [{"smiles": "Nc1ncnc2c1ncn2[C@@H]1O[C@H](COP(=O)(O)OP(=O)(O)OP(=O)(O)O)[C@@H](O)[C@H]1O", "note": "[ATP]", "values": [{"measurement": "Kd", "result": 849, "unit": "µM"}]}]}
